Measurements reported in patent US20020193422A1, “Anthranilamides and methods of their use” (priority 2001, published 2002).

The chains behind the UniProt entries cited, without tags or fusion partners.
UniProt P22460, whole entry: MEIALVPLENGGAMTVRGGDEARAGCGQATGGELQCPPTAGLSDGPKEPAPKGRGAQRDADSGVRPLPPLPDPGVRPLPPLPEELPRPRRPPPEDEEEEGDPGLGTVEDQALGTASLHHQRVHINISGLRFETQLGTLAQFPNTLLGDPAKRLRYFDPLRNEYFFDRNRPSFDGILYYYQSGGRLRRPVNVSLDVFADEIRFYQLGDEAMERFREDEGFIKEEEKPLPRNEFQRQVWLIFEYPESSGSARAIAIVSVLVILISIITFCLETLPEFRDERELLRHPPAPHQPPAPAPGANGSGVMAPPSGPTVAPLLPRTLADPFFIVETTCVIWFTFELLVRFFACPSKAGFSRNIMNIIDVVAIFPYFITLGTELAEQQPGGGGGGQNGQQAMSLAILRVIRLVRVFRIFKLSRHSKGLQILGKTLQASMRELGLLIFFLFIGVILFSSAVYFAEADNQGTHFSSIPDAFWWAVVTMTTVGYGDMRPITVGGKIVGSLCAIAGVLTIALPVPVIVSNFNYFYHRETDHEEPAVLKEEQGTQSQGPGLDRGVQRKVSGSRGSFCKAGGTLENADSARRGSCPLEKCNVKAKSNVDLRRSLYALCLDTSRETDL

Target: Human Kv1.5 channels (Homo sapiens, UniProt P22460)
Experiment: Kv1.5 currents in Xenopus oocytes, two-microelectrode voltage clamp
Settings: human Kv1.5 expressed in Xenopus laevis oocytes; 500 ms voltage jumps to 0 mV and 40 mV; room temperature; percentage inhibition of control current fitted with Hill equation
Method: Human Kv1.5 channels were expressed in xenopus oocytes. For this purpose, oocytes from Xenopus laevis were first isolated and defolliculated. Kv1.5 coding RNA synthesized in vitro was then injected into these oocytes. After Kv1.5 protein expression for 1-7 days, Kv1.5 currents were measured in the oocytes using the two-microelectrode voltage clamp technique. The Kv1.5 channels were activated here with 500 ms voltage jumps to 0 mV and 40 mV. The bath was flushed with a solution of the following: NaCl 96 mM, KCl 2 mM, CaCl2 1.8 mM, MgCl2 1 mM, HEPES 5 mM (titrated with NaOH to pH 7.4). These experiments were carried out at room temperature. The following were used for data collection and analysis: Geneclamp amplifier (Axon Instruments, Foster City, USA) and MacLab D/A converter and software (ADInstruments, Castle Hill, Australia). The compounds according to the invention were tested by adding them to the bath solution in different concentrations. The effects of the compounds were calculated as percentage inhibition of the Kv1.5 control current which was obtained when no compound was added to the solution. The data were then extrapolated using the Hill equation, in order to determine the inhibitory concentrations (IC50) for the respective compounds.

`COc1ccc(NS(=O)(=O)c2ccc(C)cc2)c(C(=O)NCCc2ccccn2)c1` was tested. Which IC50 did it give?
Its IC50 is 8 µM.

With `CCN(C(=O)c1ccccc1NS(=O)(=O)c1ccc(OC)c(OC)c1)c1ccccc1` as the molecule, how does the IC50 read?
Its IC50 is 3.5 µM.

How did the IC50 turn out when `COc1ccc(NS(=O)(=O)c2ccc(C)cc2)c(C(=O)NCCc2ccco2)c1` was run?
The IC50 was 3.2 µM.
